Laboratory results reported in PubChem BioAssay AID588405 (Sanford-Burnham Center for Chemical Genomics, 2011).
The list shows a part of the results, in another mix than the full data. Active and inactive are the calls of the source.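 The calls were made as follows: active = inhibition of at least 50% at 20 µM; inactive = the rest.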

Experiment: Peg3 promoter-driven luciferase inhibitors, primary screen, cell-based, HeLa, luciferase luminescence (AID 588405)
Conditions: HeLa PEG-Prom luciferase reporter, overnight, at 20 µM, active compounds read high

| Compound | inhibition |
| --- | --- |
| O=C(O)COc1ccc([As](=O)(O)O)cc1[N+](=O)[O-] | inactive: -14.4% |
| CCOP1(=S)c2c(C)nn(CCC#N)c2N=C(c2ccccc2F)N1C (stereo unspecified) | inactive: 19.9% |
| O=P(Nc1nccs1)(Oc1ccccc1)Oc1ccccc1 | inactive: 8.25% |
| O=P(Nc1nccs1)(c1ccccc1)c1nc2ccccc2s1 (stereo unspecified) | inactive: -2.02% |
| CS(=O)(=O)c1cc([N+](=O)[O-])c2no[n+]([O-])c2c1 | inactive: -10.1% |
| CC(C)NC(=O)NP(=O)(Oc1ccccc1)Oc1ccccc1 | inactive: -2.9% |
| CCN(CC)C(=S)SC(NC=O)C(Cl)(Cl)Cl (stereo unspecified) | inactive: 11.6% |
| O=C(OC1CN2CCC1CC2)c1cccc2[nH]cnc12 (stereo unspecified) | inactive: 3.93% |
| O=[N+]([O-])c1cc([N+](=O)[O-])c(-c2ccn[nH]2)s1 | inactive: 43.9% |
| ClCCSc1nnc(-c2cccnc2)o1 | inactive: -46.3% |
| COC(=O)C1(C)COP(=O)(N2CCCCCC2)OC1 (stereo unspecified) | inactive: 10.7% |
| CC(C)c1ccc(OP(=O)(Nc2ccccn2)Oc2ccccc2F)cc1 (stereo unspecified) | inactive: 8.88% |
| Cc1ccc(OP(=O)(Nc2ccc([N+](=O)[O-])cn2)Oc2ccc(C)cc2)cc1 | inactive: 2.82% |
| Cc1ccc2nc3c(c(C)c2c1)CC(C(Cl)Cl)S3 (stereo unspecified) | inactive: -250% |
| O=[As](O)(c1ccc(O)cc1)c1ccccc1O | inactive: 4.89% |
| C[As](=O)(O)c1cccc(C(=O)O)c1 | inactive: 3.25% |
| O=[N+]([O-])c1ccc(-c2cc([N+](=O)[O-])c(O)c([N+](=O)[O-])c2)cc1 | inactive: 16.3% |
| COc1cc(C(=O)NCC2(N3CCOCC3)CCCCC2)ccc1OCC(C)C | inactive: 24.1% |
| O=[N+]([O-])c1cc(Oc2ccc([N+](=O)[O-])cc2C(F)(F)F)cc([N+](=O)[O-])c1 | inactive: 4.98% |
| COc1ccc(N/C(=N/P(=O)(N2CCOCC2)N2CCOCC2)N2CCOCC2)cc1 | inactive: 17.3% |
| O=P1(N(CCCl)CCCl)OCCCN1CCCl (stereo unspecified) | inactive: 3.48% |
| O=P1(N(CCCl)CCCl)Nc2ccccc2N1 | inactive: -10.7% |
| COc1ccc2nc(NP(=O)(c3ccccc3)c3ccccc3)sc2c1 | inactive: 8.3% |

| Compound | inhibition |
| --- | --- |
| COc1cc(I)ccc1[As](=O)(O)O | inactive: 5.74% |
| Cc1c2c(nc3ccccc13)SC(C(Cl)Cl)C2 (stereo unspecified) | inactive: -74% |
| O=C(OC1CN2CCC1CC2)C12CC3CC(CC(C3)C1)C2 (stereo unspecified) | inactive: 9.09% |
| Cc1cc(=O)[nH]c(N[N+](=O)[O-])n1 | inactive: 21.3% |
| CCC(C)N(CC(C)C)C(=S)SC(NC(C)=O)C(Cl)(Cl)Cl (stereo unspecified) | inactive: 15.9% |
| O=C(OC1CN2CCC1CC2)c1cccc([N+](=O)[O-])c1 (stereo unspecified) | inactive: -0.44% |
| CSc1ccc(Nc2c([N+](=O)[O-])cc([N+](=O)[O-])cc2[N+](=O)[O-])cc1 | inactive: 26.4% |
| CCOC(=O)c1ccc(NC(=O)C(C)(CCl)SC)cc1 (stereo unspecified) | inactive: -105% |
| O=C(O)C(=O)c1ccc(N(CCCl)CCCl)cc1 | inactive: 5.04% |
| O=C(COc1ccccc1)OC1CN2CCC1CC2 (stereo unspecified) | inactive: 16.3% |
| O=C(Nc1ccncc1[N+](=O)[O-])c1ccc([N+](=O)[O-])cc1[N+](=O)[O-] | inactive: 10.3% |
| COP1(=S)c2c(C)nn(CCC#N)c2N=C(c2ccc(F)cc2)N1C (stereo unspecified) | inactive: 11.8% |
| COC(=O)C1(C)COP(=O)(N2CCCC2)OC1 (stereo unspecified) | inactive: -7.2% |
| O=P(Nc1ccccn1)(c1cccc2ccccc12)c1cccc2ccccc12 | inactive: 12.4% |
| Cc1cc(SC(NC=O)C(Cl)(Cl)Cl)ncn1 (stereo unspecified) | inactive: 10% |
| O=[N+]([O-])c1ccc(Nc2ccc(Oc3ccc([N+](=O)[O-])cc3[N+](=O)[O-])cc2)c([N+](=O)[O-])c1 | inactive: -14.7% |
| CCOC(=O)Nc1cccc([As](=O)(O)O)c1 | inactive: 9.37% |
| COP(=O)(OC)N1CC1c1ccccc1 (stereo unspecified) | inactive: -21.3% |
| CCCCOc1ccc(C(=O)NCC2(N3CCCCC3)CCCCC2)cc1OC | inactive: 15.9% |
| Cc1cc(SC(NC(=O)c2ccccc2)C(Cl)(Cl)Cl)nc(C(C)C)n1 (stereo unspecified) | inactive: 7.77% |
| CCOC(=O)Nc1ccc([As](=O)(O)O)c(O)c1 | inactive: 7.25% |
| O=C(O)C(O)c1ccc(N(CCCl)CCCl)cc1 (stereo unspecified) | inactive: 4.43% |
| CC1CCNP(=O)(N(CCCl)CCCl)O1 (stereo unspecified) | inactive: 4.58% |
